# Test results taken from PubChem BioAssay AID1950 (The Scripps Research Institute Molecular Screening Center, 2009).
# Only a part is listed here, and it is no random draw. Some of these compounds have results that are not shown, active ones among them. The source made the active and inactive calls. Cut-off read from the data, not from the text of the source: active = inhibition above about 28%; inactive = the rest.
# Test system: EBNA-1 (Epstein-Barr virus nuclear antigen 1), Human herpesvirus 4
# Assay: EBNA-1 DNA-binding inhibitors, primary screen, biochemical, fluorescence polarization (AID 1950)
# Details: at 14.8 µM, stronger effect = higher value
row,SMILES,inhibition
1,CC(C)Oc1ccc(C(=O)NCC2(N(C)C)CCCCC2)cc1,inactive: -10.8%
2,CN(C)c1cccc(C(=O)NCC2(N(C)C)CCCCC2)c1,inactive: 6.2%
3,COc1ccc(Br)c(C(=O)NCC2(N3CCCCC3)CCCCC2)c1,inactive: 6.7%
4,O=C(OC1CN2CCC1CC2)C(CO)(c1ccccc1)c1ccccc1 (centres undefined),inactive: 0.3%
5,O=C(NCC1(N2CCCCC2)CCCCC1)c1cccc(Cl)c1,inactive: -6.53%
6,COc1cccc(C(=O)NCC2(N3CCCCC3)CCCCC2)c1,inactive: -3.97%
7,COc1ccc(Cl)cc1C(=O)NCC1(N(C)C)CCCCC1,inactive: 1.21%
8,COc1cc(C(=O)NCC2(N(C)C)CCCCC2)c([N+](=O)[O-])cc1OC,inactive: -8.48%
9,CN(C)C1(CNC(=O)c2ccc(Br)cc2)CCCCC1,inactive: -3.75%
10,COc1ccc(C(=O)NCC2(N(C)C)CCCCC2)cc1,inactive: -5.78%
11,Cc1cc(C(=O)NCC2(N3CCCCC3)CCCCC2)ccc1[N+](=O)[O-],inactive: 5.65%
12,CCN1CCCC(OC(=O)C2(O)c3ccccc3C=Cc3ccccc32)C1 (centres undefined),inactive: 9.23%
13,O=C(NCC1(N2CCCCC2)CCCCC1)c1cccc(Br)c1,inactive: 4.19%
14,C=CCN1CCN(CCOC(=O)C(O)(c2ccccc2)c2ccccc2)CC1,inactive: -13.2%
15,O=C(NCC1(N2CCCCC2)CCCCC1)c1cc(F)c(F)cc1Cl,inactive: -5.6%
16,Cc1ccccc1C(=O)NCC1(N2CCCCC2)CCCCC1,inactive: -4.35%
17,CN(C)C1CCCC1OC(=O)C(O)(c1ccccc1)c1ccccc1 (centres undefined),inactive: -1.65%
18,CN(C)c1ccc(C(=O)NCC2(N(C)C)CCCCC2)cc1,inactive: -3.74%
19,Cc1ccc(C(=O)NCC2(N3CCCCC3)CCCCC2)cc1,inactive: -8.77%
20,CCN(CC)CC(C)C(C)OC(=O)C(O)(c1ccccc1)c1ccccc1 (centres undefined),inactive: -1%
21,COc1cc(SC)ccc1C(=O)NCC1(N(C)C)CCCCC1,inactive: 7.89%
22,CC(C)N1C(=O)CC2(CCN(CCOC(=O)C(O)(c3ccccc3)c3ccccc3)CC2)C1=O,inactive: 2.12%
23,CN1[C@@H]2CC[C@H]1CC(OC(=O)C(O)(c1ccccc1)c1ccccc1)C2 (some centres undefined),inactive: 16.1%
24,O=C(NCC1(N2CCCCC2)CCCCC1)c1cc([N+](=O)[O-])ccc1Cl,inactive: -7.4%
